System: dopamine in the striatum
Test: Microdialysis in Sprague-Dawley rats
Assay type: in vivo
Conditions: 50 mg/kg ip, compared to conventional L-DOPA, FIG. 1

[2H]C([2H])(c1ccc(O)c(O)c1)[C@]([2H])(N)C(=O)O [Deulevodopa]
half life of deu-dopamine in the striatum/brain: more than doubled

From patent US20200121812A1 (Teva Pharmaceuticals International GmbH, priority 2015, published 2020)
